Patent publication EP0345931A1, “Certain PAF antagonist/antihistamine combinations and methods” (SCHERING CORPORATION, priority 1988, dated 1989)

System: PAF-induced lethality
Assay: PAF-induced lethality in mice

platelet-activating factor [PAF]
lethality (PAF 100 µg/kg i.v. through the tail vein): 0% | lethality (PAF 150 µg/kg i.v. through the tail vein): 60% | lethality (PAF 200 µg/kg i.v. through the tail vein): 100%
